A short description of data set [1]: in vitro. The conditions noted are these: human, microsomes.
A short description of data set [2]: Microsomal metabolic stability, human liver microsomes. The conditions noted are these: HLM 0.5.

As for `O=C(O)Cc1ccccc1Nc1c(Cl)cccc1Cl` [Diclofenac], in data set [1], the microsomal CLint was found to be 180 µL/min/mg. `C[C@]12CC[C@H]3[C@@H](CCC4=CC(=O)CC[C@@]43C)[C@@H]1CC[C@@H]2O` [Testosterone]: in data set [2], the “CLint(mic)” value worked out at 107.1 µL/min/mg.
